# Target: 5-hydroxytryptamine receptor 1B (Rattus norvegicus, UniProt P28564)
# Sequences of proteins named here, by UniProt entry; tags and fusion partners are left off.
# UniProt P28564, whole entry: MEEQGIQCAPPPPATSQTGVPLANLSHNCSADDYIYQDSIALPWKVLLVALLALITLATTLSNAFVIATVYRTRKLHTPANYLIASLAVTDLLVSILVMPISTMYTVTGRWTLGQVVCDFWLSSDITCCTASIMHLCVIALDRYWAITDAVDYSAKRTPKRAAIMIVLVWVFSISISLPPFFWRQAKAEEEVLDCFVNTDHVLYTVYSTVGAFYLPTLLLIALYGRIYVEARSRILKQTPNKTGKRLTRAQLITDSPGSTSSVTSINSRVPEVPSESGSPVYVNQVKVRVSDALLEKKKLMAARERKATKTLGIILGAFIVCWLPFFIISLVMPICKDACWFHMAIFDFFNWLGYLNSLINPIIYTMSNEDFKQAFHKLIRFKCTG
compound,measurement,value
CCCN(CCC)C1CCc2cccc(O)c2C1 (stereo unspecified),Ki,> 10 µM

# From BindingDB's records for PubMed 1738111 (University of Texas, 1992)
